This is a selection; strong and weak results do not stand in their true shares. Some results for these compounds are left out of this collection, so the calls shown say nothing about other tests. Calls of active or inactive are those of the source.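 How the source made its calls: active means nuclear translocation activity above 50% at 5 µM, with a well cell count of 50 or more; inconclusive means wells under 50 cells across six images, flagged as toxic; inactive means the rest.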
assay: modulators of beta-catenin nuclear translocation, primary screen, imaging, HeLa cells, immunofluorescence, high-content (AID 1665); details: at 5 µM, hits give high values;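 further: per-cell ratio of nuclear to cytoplasmic median beta-catenin stain intensity; plate controls were DMSO negative control for no effect and GSK-3 inhibitor IX positive control for full effect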
Procedure, shortened: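 Test system: human HeLa cells, native beta-catenin. Compound dosing: 5 µM primary single dose, 0.1% DMSO, 0.02–20 µM confirmation series. Incubation: compound exposure 24 h at 37°C. Detection: beta-catenin immunostaining with DAPI counterstain, 20x imaging, 6 fields/well. Read-out basis: Nuclear/cytoplasmic beta-catenin signal ratio, % activation.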

| Structure (SMILES) | nuclear translocation activity |
| --- | --- |
| COc1cccc(C(=O)NCC2(N3CCCCC3)CCCCC2)c1 | inactive: -1.3% |
| COc1ccc(Br)c(C(=O)NCC2(N3CCCCC3)CCCCC2)c1 | inactive: -0.2% |
| CN(C)c1cccc(C(=O)NCC2(N(C)C)CCCCC2)c1 | inactive: -6.3% |
| O=C(NCC1(N2CCCCC2)CCCCC1)c1cc([N+](=O)[O-])ccc1Cl | inactive: 0.9% |
| CCN(CC)CC(C)C(C)OC(=O)C(O)(c1ccccc1)c1ccccc1 (stereo not given) | inactive: -0.2% |
| CC(C)N1C(=O)CC2(CCN(CCOC(=O)C(O)(c3ccccc3)c3ccccc3)CC2)C1=O | inactive: -3.2% |
| Cc1ccccc1C(=O)NCC1(N2CCCCC2)CCCCC1 | inactive: -3.2% |
| CN(C)C1CCCC1OC(=O)C(O)(c1ccccc1)c1ccccc1 (stereo not given) | inactive: 4.3% |
| C=CCN1CCN(CCOC(=O)C(O)(c2ccccc2)c2ccccc2)CC1 | inactive: 0.8% |
| CCN1CCCC(OC(=O)C2(O)c3ccccc3C=Cc3ccccc32)C1 (stereo not given) | inactive: -0.5% |
